Each molecule was assayed on Alpha-1D/Alpha-1A adrenergic receptor (Homo sapiens) (assay: Ratio of binding affinity towards Alpha1d to Alpha-1A).

Row | SMILES | Ratio
1 | CC(C)Oc1ccccc1N1CCN(CC(O)CNC(=O)c2ccc3c(c2)C(=O)N(c2ccc([N+](=O)[O-])cc2)C3=O)CC1 (stereo unspecified) | 21
2 | Cc1ccc(N2C(=O)c3ccc(C(=O)NCC(O)CN4CCN(c5ccccc5OC(C)C)CC4)cc3C2=O)cc1 (stereo unspecified) | 94
3 | CC(C)Oc1ccccc1N1CCN(CC(O)CNC(=O)c2ccc3c(c2)C(=O)N(c2cccc(F)c2)C3=O)CC1 (stereo unspecified) | 50
4 | CC(C)Oc1ccccc1N1CCN(C[C@H](O)CNC(=O)c2ccc3c(c2)C(=O)N(c2cccc(F)c2)C3=O)CC1 | 8
5 | COc1ccccc1N1CCN(CC(O)CNC(=O)c2ccc3c(c2)C(=O)N(c2cccc(F)c2)C3=O)CC1 (stereo unspecified) | 25
6 | CC(C)Oc1ccccc1N1CCN(CC(O)CNC(=O)c2ccc3c(c2)C(=O)N(c2ccc(O)cc2)C3=O)CC1 (stereo unspecified) | 32
7 | CC(C)Oc1ccccc1N1CCN(C[C@@H](O)CNC(=O)c2ccc3c(c2)C(=O)N(c2ccc(O)cc2)C3=O)CC1 | 298
8 | CC(C)Oc1ccccc1N1CCN(C[C@@H](O)CNC(=O)c2ccc3c(c2)C(=O)N(c2cccc(F)c2)C3=O)CC1 | 186
9 | CC(C)Oc1ccccc1N1CCN(CC(O)CNC(=O)c2ccc3c(c2)C(=O)N(c2ccc(C(C)(C)C)cc2)C3=O)CC1 (stereo unspecified) | 25
10 | CC(C)Oc1ccccc1N1CCN(CCCNC(=O)c2ccc3c(c2)C(=O)N(c2cccc(F)c2)C3=O)CC1 | 54
11 | COc1ccccc1N1C(=O)c2ccc(C(=O)NCC(O)CN3CCN(c4ccccc4OC(C)C)CC3)cc2C1=O (stereo unspecified) | 49
12 | CC(C)Oc1ccccc1N1CCN(CCCNC(=O)c2ccc3c(c2)C(=O)N(c2ccc(N(C)C)cc2)C3=O)CC1 | 83
13 | CC(C)Oc1ccccc1N1CCN(C[C@@H](O)CNC(=O)c2ccc3c(c2)C(=O)N(c2ccc(N(C)C)cc2)C3=O)CC1 | 158
14 | CC(C)Oc1ccccc1N1CCN(CC(O)CNC(=O)c2ccc3c(c2)C(=O)N(c2ccc(N(C)C)cc2)C3=O)CC1 (stereo unspecified) | 50
15 | Cc1cccc(N2C(=O)c3ccc(C(=O)NCC(O)CN4CCN(c5ccccc5OC(C)C)CC4)cc3C2=O)c1 (stereo unspecified) | 81
16 | CC(C)Oc1ccccc1N1CCN(CC(O)CNC(=O)c2ccc3c(c2)C(=O)N(c2ccc(Cl)cc2)C3=O)CC1 (stereo unspecified) | 58
17 | COc1ccc(N2C(=O)c3ccc(C(=O)NCCCN4CCN(c5ccccc5OC(C)C)CC4)cc3C2=O)cc1 | 145
18 | Cc1ccc(N2C(=O)c3ccc(C(=O)NC[C@H](O)CN4CCN(c5ccccc5OC(C)C)CC4)cc3C2=O)cc1 | 186
19 | CCOc1ccccc1N1CCN(CC(O)CNC(=O)c2ccc3c(c2)C(=O)N(c2cccc(F)c2)C3=O)CC1 (stereo unspecified) | 32
20 | CC(C)Oc1ccccc1N1CCN(CC(O)CNC(=O)c2ccc3c(c2)C(=O)N(c2ccc(F)cc2)C3=O)CC1 (stereo unspecified) | 74
21 | COC(CNC(=O)c1ccc2c(c1)C(=O)N(c1cccc(F)c1)C2=O)CN1CCN(c2ccccc2OC(C)C)CC1 (stereo unspecified) | 595

Source: ChEMBL document CHEMBL1133729, “Design, synthesis, and structure-activity relationships of phthalimide-phenylpiperazines: a novel series of potent and selective alpha(1)(a)-adrenergic receptor antagonists” (J Med Chem, 2000)
